This is an account of results in patent publication US10098888B2, “Substituted benzene compounds” (Epizyme, Inc., priority 2012, dated 2018).

Experiment [1] relates to H3K27me3 in WSU-DLCL2 cells. The experiment in a line: WSU-DLCL2 Methylation Assay (H3K27me3 ELISA). It counts as cell-based. To be noted: Homo sapiens, WSUDLCL2, 96 hours incubation. Background: ELISA stands for enzyme-linked immunosorbent assay.
Experiment [2] concerns WSU-DLCL2 cells. The experiment in a line: Cell Proliferation Analysis (WSU-DLCL2, Cell Titer Glo). It counts as cell-based. The settings on record: Homo sapiens, WSUDLCL2, 144 h, 6 days. On the technique in general: In ATP-based viability assays light output follows the ATP content of the culture.

pIC50: −log10 of the molar value.

Usually pIC50 stands for the negative decadic logarithm of the IC50, by convention in mol/L. A high value points to a small IC50. Regarding `CCN(c1cc(C#CC2CCN(C)CC2)cc(C(=O)NCc2c(C)cc(C)[nH]c2=O)c1C)C1CCOCC1` [Compound 105, N-((4,6-Dimethyl-2-oxo-1,2-dihydropyridin-3-yl)methyl)-3-(ethyl(tetrahydro-2H-pyran-4-yl)amino)-2-methyl-5-((1-methylpiperidin-4-yl)ethynyl)benzamide], the pIC50 in experiment [1] was 6.82 to 7.24; in experiment [2] it was 6.49.
